This passage reports AC40 results from PubChem BioAssay AID540258 (Broad Institute, 2011).

The experiment relates to SK-MEL-5 TRPM1 promoter luciferase reporter, 24 h. Nature of the experiment: activation of TRPM1 promoter luciferase in melanoma cells – SK-MEL-5 cells, cherry-pick samples, dose response (AID 540258).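 Further: potency for activators that raise TRPM1 promoter luciferase signal.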

As to `Oc1ccc(/C=C/c2cc(O)cc(O)c2)cc1`, the AC40 was 719 nM.
